# Data from ChEMBL document CHEMBL2346547, “Bifunctional inhibition of human immunodeficiency virus type 1 reverse transcriptase: mechanism and proof-of-concept as a novel therapeutic design strategy” (J Med Chem, 2013).
# Active and inactive are the calls of the source. The calls are words filed in the database; no cut-off is given here.
# Experiments:
# [1] = biological target: Human immunodeficiency virus type 1 reverse transcriptase (Human immunodeficiency virus 1) (UniProt Q72547); assay: Inhibition of C-Terminal histidine-tagged wild type heterodimeric HIV-1 reverse transcriptase p66/p51 assessed as inhibition of dGTP incorporation to 5'- primer after 30 mins by PAGE using D24/D36 primer/template
# [2] = biological target: Human immunodeficiency virus type 1 reverse transcriptase (Human immunodeficiency virus 1) (UniProt Q72547); assay: Inhibition of C-Terminal histidine-tagged wild type heterodimeric HIV-1 reverse transcriptase p66/p51 assessed as inhibition of dTTP incorporation to 5'- primer after 30 mins by PAGE using D23/D36 primer/template
smiles,measurement,setting,value
Cc1cc(C#CCOCCOCCOCCOCCOCC#Cc2cn([C@H]3C=C[C@@H](COP(=O)(O)OP(=O)(O)OP(=O)(O)O)O3)c(=O)[nH]c2=O)cc(C)c1Oc1ccnc(Nc2ccc(C#N)cc2)n1,inhibition,[1],inactive
same,inhibition,[2],100%
